Experimental data as given in ChEMBL document CHEMBL5537192, “Specific Inhibitors of Mitochondrial Deacylase Sirtuin 4 Endowed with Cellular Activity” (J Med Chem, 2024).
Active and inactive are the calls of the source. The rule behind the calls is not given here.

By UniProt entry, the sequences of proteins in these tests, tags left out. Where a name states a change or a piece, a line headed by the entry shows the natural chain unless it says otherwise.
UniProt Q9NXA8: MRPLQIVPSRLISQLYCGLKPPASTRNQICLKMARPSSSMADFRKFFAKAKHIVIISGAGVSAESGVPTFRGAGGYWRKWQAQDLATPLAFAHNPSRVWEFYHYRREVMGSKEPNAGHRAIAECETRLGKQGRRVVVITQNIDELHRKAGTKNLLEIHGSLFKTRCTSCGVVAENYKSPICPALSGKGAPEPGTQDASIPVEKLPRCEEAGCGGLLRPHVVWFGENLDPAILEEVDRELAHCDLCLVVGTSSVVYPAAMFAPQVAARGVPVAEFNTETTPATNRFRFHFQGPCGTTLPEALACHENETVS

Columns and labels:
[1] = target: T1, NAD-dependent protein lipoamidase sirtuin-4, mitochondrial (Mus musculus) (UniProt Q8R216); assay: Inhibition of SIRT4 in mouse C2C12 cell mitochondria assessed as increase in GDH activity incubated for 4 hrs by absorbance based assay; details: dose 5-25 µM
T1 sequence (whole entry): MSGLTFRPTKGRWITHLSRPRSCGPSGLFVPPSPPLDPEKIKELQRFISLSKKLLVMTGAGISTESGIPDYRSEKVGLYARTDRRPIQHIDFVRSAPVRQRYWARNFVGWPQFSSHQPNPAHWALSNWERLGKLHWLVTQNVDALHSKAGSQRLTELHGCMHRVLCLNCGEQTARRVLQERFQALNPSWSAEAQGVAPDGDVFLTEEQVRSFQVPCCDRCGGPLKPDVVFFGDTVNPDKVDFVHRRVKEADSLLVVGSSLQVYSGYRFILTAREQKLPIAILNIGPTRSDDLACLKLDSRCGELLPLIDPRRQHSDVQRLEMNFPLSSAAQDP

[2] = target: T1, NAD-dependent protein lipoamidase sirtuin-4, mitochondrial (Mus musculus); assay: Inhibition of SIRT4 in mouse C2C12 cell mitochondria assessed as rescue of PDH activity incubated for 8 days in presence of glutamax by GloMax multi-detection system; details: time 8.0 day
[3] = target: T1, NAD-dependent protein lipoamidase sirtuin-4, mitochondrial (Mus musculus); assay: Inhibition of SIRT4 in mouse C2C12 cells assessed as increase in GDH activity incubated for 4 hrs by absorbance based assay; type: cell-based; details: dose 5-25 µM
[4] = target: T1, NAD-dependent protein lipoamidase sirtuin-4, mitochondrial (Mus musculus); assay: Inhibition of SIRT4 in mouse C2C12 cells assessed as rescue of PDH activity incubated for 8 days in presence of glutamax by GloMax multi-detection system; type: cell-based; details: time 8.0 day
[5] = target: NAD-dependent protein deacylase sirtuin-5, mitochondrial (Homo sapiens) (UniProt Q9NXA8); assay: Inhibition of N-terminal His-tagged recombinant human Sirt5 (34 to 302 residues) expressed in Escherichia coli CodonPlus(DE3) cells using succinylated FdL-substrate as substrate upto 50 uM incubated for 7 mins by fluorescence based assay
[6] = target: T1, NAD-dependent protein lipoamidase sirtuin-4, mitochondrial (Mus musculus); assay: Inhibition of SIRT4 in mouse C2C12 cell mitochondria assessed as increase in GDH activity at 5 to 25 uM incubated for 4 hrs by absorbance based assay; details: dose 5-25 µM
[7] = target: T1, NAD-dependent protein lipoamidase sirtuin-4, mitochondrial (Mus musculus); assay: Inhibition of SIRT4 in mouse C2C12 cell mitochondria assessed as rescue of PDH activity at 25 uM incubated for 8 days in presence of glutamax by GloMax multi-detection system; details: time 8.0 day
[8] = target: T1, NAD-dependent protein lipoamidase sirtuin-4, mitochondrial (Mus musculus); assay: Inhibition of SIRT4 in mouse C2C12 cells assessed as rescue of PDH activity at 25 uM incubated for 8 days in presence of glutamax by GloMax multi-detection system; type: cell-based; details: time 8.0 day
[9] = target: T1, NAD-dependent protein lipoamidase sirtuin-4, mitochondrial (Mus musculus); assay: Inhibition of SIRT4 in mouse C2C12 cells assessed as increase in GDH activity at 5 to 25 uM incubated for 4 hrs by absorbance based assay; type: cell-based; details: dose 5-25 µM

inhibition [1] | inhibition [2] | inhibition [3] | inhibition [4] | inhibition [5] | inhibition [6] | inhibition [7] | inhibition [8] | inhibition [9] | SMILES
Dose-Dependent Effect | Dose-Dependent Effect | Dose-Dependent Effect | Dose-Dependent Effect | inactive | – | – | – | – | O=C(CSc1nc2ccccc2c(=O)[nH]1)Nc1ncc(S(=O)(=O)c2ccc([N+](=O)[O-])cc2)s1
Dose-Dependent Effect | Dose-Dependent Effect | Dose-Dependent Effect | Dose-Dependent Effect | – | – | – | – | – | O=C(Nc1ncc(S(=O)(=O)c2ccc([N+](=O)[O-])cc2)s1)C(Sc1nc2cc(Cl)ccc2[nH]1)c1ccccc1 (stereo not drawn)
– | – | – | – | – | inactive | inactive | inactive | inactive | CCCc1cc(=O)[nH]c(SCC(=O)Nc2ccc(S(=O)(=O)c3ccc([N+](=O)[O-])cc3)cc2)n1
